Like-named read-outs stand apart in the source and are kept apart here.
How the values were obtained:
MRGPRX4 = MRGPRX4 (Homo sapiens, UniProt Q96LA9); assay: MRGPRX4 activity assay, antagonism versus deoxycholic acid (DCA), IP-One Gq HTRF
[1] = Pharmacokinetic study in mice, oral and intravenous (Table 6)
[2] = Pharmacokinetic study in rat, oral and intravenous (Table 6)
CYP1A2 = CYP1A2 (Homo sapiens, UniProt P05177); assay: CYP inhibition; settings: read-out: CYP 1A2 IC50
CYP2C19 = CYP2C19 (Homo sapiens, UniProt P33261); assay: CYP inhibition; settings: read-out: CYP 2C19 IC50
CYP2C9 = CYP2C9 (Homo sapiens, UniProt P11712); assay: CYP inhibition; settings: read-out: CYP 2C9 IC50
CYP2D6 = CYP2D6 (Homo sapiens, UniProt P10635); assay: CYP inhibition; settings: read-out: CYP 2D6 IC50
CYP3A4 = CYP3A4 (Homo sapiens, UniProt P08684); assay: CYP inhibition; settings: read-out: CYP 3A4 IC50
MDCK permeability = settings: for MDCK ER: efflux ratio (ER)
[3] = Plasma protein binding (PPB), M
[4] = Plasma protein binding (PPB), H
MRGPRX2 = MRGPRX2 (Homo sapiens, UniProt Q96LB1); assay: MRGPRX2 selectivity assay, antagonism versus Substance P, IP-One Gq HTRF in CHO-K1/MRGPRX2 cells; settings: for IC50: versus 10 μM Substance P
[5] = read-out: MRGPRX4 antagonist activity, SH-4 cells, versus 30 μM DCA agonist, Table 3
[6] = read-out: MRGPRX2 activity IC50, N1, Table 4

Chains of the proteins cited; added tags and fusions are not shown.
UniProt Q96LA9, whole entry: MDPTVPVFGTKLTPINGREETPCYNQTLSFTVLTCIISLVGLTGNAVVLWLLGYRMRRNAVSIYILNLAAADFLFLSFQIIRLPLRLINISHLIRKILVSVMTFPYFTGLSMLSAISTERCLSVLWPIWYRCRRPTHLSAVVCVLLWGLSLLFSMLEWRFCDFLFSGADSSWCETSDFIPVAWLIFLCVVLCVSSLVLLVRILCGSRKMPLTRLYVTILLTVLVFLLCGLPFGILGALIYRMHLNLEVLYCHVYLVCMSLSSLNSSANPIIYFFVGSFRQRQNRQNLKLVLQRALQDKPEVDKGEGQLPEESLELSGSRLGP
UniProt P05177, whole entry: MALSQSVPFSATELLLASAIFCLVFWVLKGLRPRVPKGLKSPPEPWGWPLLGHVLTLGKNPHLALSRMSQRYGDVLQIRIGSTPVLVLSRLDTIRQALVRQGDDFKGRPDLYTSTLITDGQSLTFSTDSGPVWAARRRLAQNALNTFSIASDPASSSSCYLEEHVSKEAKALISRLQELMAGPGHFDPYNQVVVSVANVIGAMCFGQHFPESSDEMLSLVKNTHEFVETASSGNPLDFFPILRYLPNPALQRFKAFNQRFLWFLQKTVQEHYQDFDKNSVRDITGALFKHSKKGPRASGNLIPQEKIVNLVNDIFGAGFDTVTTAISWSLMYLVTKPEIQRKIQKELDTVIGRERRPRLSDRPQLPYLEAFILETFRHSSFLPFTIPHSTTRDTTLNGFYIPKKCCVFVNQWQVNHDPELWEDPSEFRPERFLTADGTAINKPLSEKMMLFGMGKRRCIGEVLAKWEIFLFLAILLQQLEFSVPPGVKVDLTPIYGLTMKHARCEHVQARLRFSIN
UniProt P33261, whole entry: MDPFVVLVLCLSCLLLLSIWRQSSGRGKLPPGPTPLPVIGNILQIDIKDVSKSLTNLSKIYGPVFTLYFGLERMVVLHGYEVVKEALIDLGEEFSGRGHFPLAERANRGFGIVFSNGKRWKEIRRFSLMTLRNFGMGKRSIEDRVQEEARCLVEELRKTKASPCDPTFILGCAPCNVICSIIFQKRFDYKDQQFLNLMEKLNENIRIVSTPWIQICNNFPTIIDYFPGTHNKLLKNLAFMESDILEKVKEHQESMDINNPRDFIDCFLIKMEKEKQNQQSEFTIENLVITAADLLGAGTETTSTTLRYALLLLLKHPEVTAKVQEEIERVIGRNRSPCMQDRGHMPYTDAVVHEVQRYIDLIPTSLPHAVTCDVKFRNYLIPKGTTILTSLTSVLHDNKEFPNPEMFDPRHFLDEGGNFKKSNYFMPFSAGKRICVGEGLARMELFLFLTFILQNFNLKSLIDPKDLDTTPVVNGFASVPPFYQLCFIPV
UniProt P11712, whole entry: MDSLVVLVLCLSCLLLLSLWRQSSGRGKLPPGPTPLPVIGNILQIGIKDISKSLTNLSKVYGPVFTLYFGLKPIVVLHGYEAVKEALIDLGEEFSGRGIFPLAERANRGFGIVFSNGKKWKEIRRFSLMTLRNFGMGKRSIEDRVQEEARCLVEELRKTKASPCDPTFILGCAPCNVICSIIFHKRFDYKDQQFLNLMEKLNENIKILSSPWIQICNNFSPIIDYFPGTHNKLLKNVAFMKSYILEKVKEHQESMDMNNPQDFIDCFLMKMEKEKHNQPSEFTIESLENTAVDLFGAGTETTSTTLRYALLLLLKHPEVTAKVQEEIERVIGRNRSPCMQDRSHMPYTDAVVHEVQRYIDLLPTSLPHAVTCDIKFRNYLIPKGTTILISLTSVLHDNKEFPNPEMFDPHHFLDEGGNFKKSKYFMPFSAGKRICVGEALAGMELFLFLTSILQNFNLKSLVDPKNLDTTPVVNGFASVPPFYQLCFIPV
UniProt P10635, whole entry: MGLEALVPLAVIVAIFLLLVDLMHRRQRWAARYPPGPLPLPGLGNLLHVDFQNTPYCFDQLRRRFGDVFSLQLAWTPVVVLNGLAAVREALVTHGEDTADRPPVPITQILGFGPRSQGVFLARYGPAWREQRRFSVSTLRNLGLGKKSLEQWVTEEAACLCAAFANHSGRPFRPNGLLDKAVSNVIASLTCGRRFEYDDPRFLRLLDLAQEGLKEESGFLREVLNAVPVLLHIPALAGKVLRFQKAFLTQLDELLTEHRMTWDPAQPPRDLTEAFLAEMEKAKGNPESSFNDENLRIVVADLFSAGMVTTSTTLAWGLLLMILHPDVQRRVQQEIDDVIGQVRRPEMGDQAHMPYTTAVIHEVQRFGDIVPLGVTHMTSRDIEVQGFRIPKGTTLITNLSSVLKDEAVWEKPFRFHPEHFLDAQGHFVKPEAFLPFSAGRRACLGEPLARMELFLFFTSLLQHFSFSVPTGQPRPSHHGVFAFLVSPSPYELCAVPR
UniProt P08684, whole entry: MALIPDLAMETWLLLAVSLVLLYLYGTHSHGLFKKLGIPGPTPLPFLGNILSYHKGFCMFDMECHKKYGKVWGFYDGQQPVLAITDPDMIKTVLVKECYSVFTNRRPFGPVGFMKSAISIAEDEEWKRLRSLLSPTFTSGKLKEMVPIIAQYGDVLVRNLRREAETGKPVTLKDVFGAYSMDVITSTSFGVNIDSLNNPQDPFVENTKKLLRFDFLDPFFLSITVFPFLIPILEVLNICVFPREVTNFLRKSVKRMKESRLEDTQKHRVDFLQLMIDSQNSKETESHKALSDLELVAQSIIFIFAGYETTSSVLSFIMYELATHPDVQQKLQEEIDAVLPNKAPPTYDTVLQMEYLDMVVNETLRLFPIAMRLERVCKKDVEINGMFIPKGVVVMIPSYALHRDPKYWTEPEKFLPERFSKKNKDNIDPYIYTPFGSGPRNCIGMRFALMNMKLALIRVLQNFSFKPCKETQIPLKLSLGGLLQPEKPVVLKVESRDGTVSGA
UniProt Q96LB1, whole entry: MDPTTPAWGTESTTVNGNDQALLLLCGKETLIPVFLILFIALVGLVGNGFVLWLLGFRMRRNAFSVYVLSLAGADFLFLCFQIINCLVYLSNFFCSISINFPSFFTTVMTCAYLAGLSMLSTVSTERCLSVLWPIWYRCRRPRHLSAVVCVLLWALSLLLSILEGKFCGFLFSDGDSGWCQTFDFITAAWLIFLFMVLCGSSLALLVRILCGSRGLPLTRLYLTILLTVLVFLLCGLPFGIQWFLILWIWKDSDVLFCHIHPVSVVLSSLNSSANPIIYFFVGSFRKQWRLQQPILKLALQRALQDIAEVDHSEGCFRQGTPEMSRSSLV

O=c1[nH]c(-c2cccc([C@@H]3Cc4cc(C(F)(F)F)ccc4O3)c2F)no1 (single isomer, unassigned) gave an IC50 (MRGPRX4; Table 6, target not given) of 0.024 µM, an IC50 (MRGPRX4; Table 7, target not given) of 0.024 µM and an IC50 (MRGPRX4; [5]) of less than 0.1 µM. The AUC0-t ([1]; iv 1mpk) was 42281 ng·h/mL, the C0 ([1]; iv 1mpk) was 4169 ng/mL and the CL ([1]; iv 1mpk) was 0.27 mL/min/kg. The Vd ([1]; iv 1mpk) was 0.35 L/kg, the t1/2 ([1]; iv 1mpk) was 14.74 h and the “% F” value ([1]; iv 1mpk, po 10mpk) was 107%. For the same compound, the AUC0-t ([1]; po 10mpk) was 452005 ng·h/mL, the Cmax ([1]; po 10mpk) was 29537 ng/mL and the t1/2 ([1]; po 10mpk) was 17.94 h. For the same compound, the AUC0-t ([2]; Rat iv) was 27444 ng·h/mL, the C0 ([2]; Rat iv) was 2806 ng/mL and the CL ([2]; Rat iv) was 0.67 mL/min/kg. It also gave a t1/2 ([2]; Rat iv) of 13.2 h, an AUC0-t ([2]; Rat po (1mpk)) of 26466 ng·h/mL and a Cmax ([2]; Rat po (1mpk)) of 1837 ng/mL. It also gave a t1/2 ([2]; Rat po (1mpk)) of 10.75 h, a LogD (LogP / LogD) of 2.4 and a LogP (LogP / LogD) of 3.3. For the same compound, the IC50 (CYP1A2) was greater than 30 µM, the IC50 (CYP2C19) was greater than 30 µM and the IC50 (CYP2C9) was greater than 30 µM. For the same compound, the IC50 (CYP2D6) was greater than 30 µM, the IC50 (CYP3A4) was greater than 30 µM and the “MLM % Re @30 min” value (Stability in MLM) was greater than 99%. For the same compound, the “RLM % Re @30 min” value (Stability in RLM) was 99%, the “DLM % Re @30 min” value (Stability in DLM) was greater than 99% and the “HLM % Re @30 min” value (Stability in HLM) was 98%. The “Solubility pH 7.4” value (Solubility pH 7.4) was greater than 200 μM, the “MDCK A-B” value (MDCK permeability) was 18.7 ×10⁻⁶ cm/s and the “MDCK B-A” value (MDCK permeability) was 21.6 ×10⁻⁶ cm/s. The “MDCK ER” value (MDCK permeability) was 1.15, the “PPB (M) % U” value [3] was 0.81% and the “PPB (H) % U” value [4] was 0.41%. For the same compound, the “MRGPRX2 IC50 relative to potency in MRGPRX4 assay” value (MRGPRX2; 10 μM (MRGPRX2) vs 28 nM (MRGPRX4)) was 357 times, the IC50 (MRGPRX2; read-out: MRGPRX2 IC50) was 10 µM and the IC50 (MRGPRX2; [6]) was 10 µM.
In the case of O=c1[nH]c(-c2cccc([C@@H]3Cc4cc(Cl)c(F)cc4O3)c2F)no1 (single isomer, unassigned), the IC50 (MRGPRX4; Table 6, target not given) is reported as 0.02 µM, the IC50 (MRGPRX4; Table 7, target not given) is reported as 0.02 µM and the IC50 (MRGPRX4; [5]) is reported as less than 0.1 µM. The AUC0-t ([1]; iv 1mpk) was 57467 ng·h/mL, the C0 ([1]; iv 1mpk) was 7687 ng/mL and the CL ([1]; iv 1mpk) was 0.24 mL/min/kg. For the same compound, the Vd ([1]; iv 1mpk) was 0.21 L/kg, the t1/2 ([1]; iv 1mpk) was 9.95 h and the “% F” value ([1]; iv 1mpk, po 10mpk) was 97%. It also gave an AUC0-t ([1]; po 10mpk) of 573114 ng·h/mL, a Cmax ([1]; po 10mpk) of 47007 ng/mL and a t1/2 ([1]; po 10mpk) of 9.22 h. The AUC0-t ([2]; Rat iv) was 52300 ng·h/mL, the C0 ([2]; Rat iv) was 4998 ng/mL and the CL ([2]; Rat iv) was 0.23 mL/min/kg. The Vd ([2]; Rat iv) was 0.27 L/kg, the t1/2 ([2]; Rat iv) was 13.4 h and the “% F” value ([2]; Rat po (1mpk)) was 85%. It also gave an AUC0-t ([2]; Rat po (1mpk)) of 44308 ng·h/mL, a Cmax ([2]; Rat po (1mpk)) of 2800 ng/mL and a t1/2 ([2]; Rat po (1mpk)) of 11.26 h. It also gave a LogD (LogP / LogD) of 2.2, a LogP (LogP / LogD) of 3.2 and an IC50 (CYP1A2) greater than 30 µM. The IC50 (CYP2C19) was greater than 30 µM, the IC50 (CYP2C9) was greater than 30 µM and the IC50 (CYP2D6) was greater than 30 µM. The IC50 (CYP3A4) was 4.6 µM, the “MLM % Re @30 min” value (Stability in MLM) was 84% and the “RLM % Re @30 min” value (Stability in RLM) was greater than 99%. The “DLM % Re @30 min” value (Stability in DLM) was greater than 99%, the “HLM % Re @30 min” value (Stability in HLM) was 80% and the “Solubility pH 7.4” value (Solubility pH 7.4) was greater than 200 μM. The “MDCK A-B” value (MDCK permeability) was 18.5 ×10⁻⁶ cm/s, the “MDCK B-A” value (MDCK permeability) was 16 ×10⁻⁶ cm/s and the “MDCK ER” value (MDCK permeability) was 0.86. For the same compound, the “PPB (M) % U” value [3] was 0.22%, the “PPB (H) % U” value [4] was 1.55% and the IC50 (MRGPRX2; read-out: MRGPRX2 IC50) was greater than 3 µM. It also gave an IC50 (MRGPRX2; [6]) greater than 3 µM.
Work on O=c1[nH]c(-c2cccc([C@@H]3Cc4cc(Cl)c(F)cc4O3)n2)no1 (single isomer, unassigned) yielded an IC50 (MRGPRX4; Table 6, target not given) of 0.033 µM, an IC50 (MRGPRX4; Table 7, target not given) of 0.033 µM and an IC50 (MRGPRX4; [5]) of less than 0.1 µM. It also gave an AUC0-t ([1]; iv 1mpk) of 54613 ng·h/mL, a C0 ([1]; iv 1mpk) of 6025 ng/mL and a CL ([1]; iv 1mpk) of 0.3 mL/min/kg. For the same compound, the Vd ([1]; iv 1mpk) was 0.12 L/kg, the t1/2 ([1]; iv 1mpk) was 4.67 h and the “% F” value ([1]; iv 1mpk, po 10mpk) was 49%. The AUC0-t ([1]; po 10mpk) was 273787 ng·h/mL, the Cmax ([1]; po 10mpk) was 30572 ng/mL and the t1/2 ([1]; po 10mpk) was 2.9 h. The AUC0-t ([2]; Rat iv) was 33602 ng·h/mL, the C0 ([2]; Rat iv) was 3895 ng/mL and the CL ([2]; Rat iv) was 0.52 mL/min/kg. The Vd ([2]; Rat iv) was 0.12 L/kg, the t1/2 ([2]; Rat iv) was 2.7 h and the “% F” value ([2]; Rat po (1mpk)) was 80%. The AUC0-t ([2]; Rat po (1mpk)) was 27011 ng·h/mL, the Cmax ([2]; Rat po (1mpk)) was 2587 ng/mL and the t1/2 ([2]; Rat po (1mpk)) was 2.7 h. The LogD (LogP / LogD) was 1.8, the LogP (LogP / LogD) was 3 and the IC50 (CYP1A2) was greater than 30 µM. The IC50 (CYP2C19) was greater than 30 µM, the IC50 (CYP2C9) was greater than 30 µM and the IC50 (CYP2D6) was greater than 30 µM. For the same compound, the IC50 (CYP3A4) was greater than 30 µM, the “MLM % Re @30 min” value (Stability in MLM) was greater than 99% and the “RLM % Re @30 min” value (Stability in RLM) was greater than 99%. The “DLM % Re @30 min” value (Stability in DLM) was 92%, the “HLM % Re @30 min” value (Stability in HLM) was 79% and the “Solubility pH 7.4” value (Solubility pH 7.4) was 193 μM. For the same compound, the “MDCK A-B” value (MDCK permeability) was 28.1 ×10⁻⁶ cm/s, the “MDCK B-A” value (MDCK permeability) was 36.8 ×10⁻⁶ cm/s and the “MDCK ER” value (MDCK permeability) was 1.31. For the same compound, the “PPB (M) % U” value [3] was 1.11%, the “PPB (H) % U” value [4] was 0.81% and the IC50 (MRGPRX2; [6]) was greater than 10 µM.
